Literature values in patent publication US20140378500A1, “METHODS FOR PREDICTING TUMOR REPONSE TO TARGETED THERAPIES” (20/20 Gene Systems, Inc., priority 2012, published 2014).

System: HER2 positive breast cancer
Conditions: at the onset of treatment or within a year of treatment; cited from earlier work

Question: For Trastuzumab [HERCEPTIN], which “proportion of HER2 over-expressing breast cancers refractory, not responding or acquiring resistance” value is on record?
Answer: ≥ 30%
